Source: ChEMBL document CHEMBL5500417, “Discovery of Novel 2-Oxoacetamide Derivatives as B3GAT3 Inhibitors for the Treatment of Hepatocellular Carcinoma” (J Med Chem, 2024)

Key:
MHCC97H [1] = assay: Inhibition of colony formation in human MHCC97H cells at 10 uM measured after 14 days by crystal violet staining based microscopy; assay type: functional, cell-based; conditions: time 14.0 day
HCCLM3 [2] = assay: Inhibition of colony formation in human HCCLM3 cells at 10 uM measured after 14 days by crystal violet staining based microscopy; assay type: functional, cell-based; conditions: time 14.0 day
MHCC97H [3] = assay: Inhibition of cell migration in human MHCC97H cells assessed as suppression of wound healing at 10 uM measured after 24 hrs by Transwell Cell Migration Assay (reference value: 22.22%); assay type: functional
HCCLM3 [4] = assay: Inhibition of cell migration in human HCCLM3 cells assessed as suppression of wound healing at 10 uM measured after 24 hrs by Transwell Cell Migration Assay (reference value: 15.71%); assay type: functional
MHCC97H [5] = assay: Induction of apoptosis in human MHCC97H cells assessed as increase in active cleaved-poly [ADP-ribose] polymerase (c-PARP) at 5 to 10 uM measured after 48 hrs by Western blot analysis; assay type: functional, cell-based; conditions: dose 5-10 µM
MHCC97H [6] = assay: Induction of apoptosis in human MHCC97H cells assessed as increase in c-caspase-3 at 5 to 10 uM measured after 48 hrs by Western blot analysis; assay type: functional, cell-based; conditions: dose 5-10 µM
HCCLM3 [7] = assay: Induction of apoptosis in human HCCLM3 cells assessed as increase in active cleaved-poly [ADP-ribose] polymerase (c-PARP) at 5 to 10 uM measured after 48 hrs by Western blot analysis; assay type: functional, cell-based; conditions: dose 5-10 µM
HCCLM3 [8] = assay: Induction of apoptosis in human HCCLM3 cells assessed as increase in c-caspase-3 at 5 to 10 uM measured after 48 hrs by Western blot analysis; assay type: functional, cell-based; conditions: dose 5-10 µM
MHCC97H [9] = assay: Inhibition of chondroitin sulfate in human MHCC97H cells assessed as fluorescence at 5 to 10 uM measured after 48 hrs incubation by immunofluorescence staining analysis; assay type: functional, cell-based; conditions: dose 5-10 µM
HCCLM3 [10] = assay: Inhibition of chondroitin sulfate in human HCCLM3 cells assessed as fluorescence at 5 to 10 uM measured after 48 hrs incubation by immunofluorescence staining analysis; assay type: functional, cell-based; conditions: dose 5-10 µM
MHCC97H [11] = assay: Inhibition of colony formation in human MHCC97H cells measured after 14 days by crystal violet staining based microscopy; assay type: functional, cell-based; conditions: dose 0.625-10 µM, time 14.0 day
HCCLM3 [12] = assay: Inhibition of colony formation in human HCCLM3 cells measured after 14 days by crystal violet staining based microscopy; assay type: functional, cell-based; conditions: dose 0.625-10 µM, time 14.0 day
MHCC97H [13] = assay: Induction of E-cadherin protein expression in human MHCC97H cells at 5 to 10 uM measured after 48 hrs incubation by Western blot analysis; assay type: functional, cell-based; conditions: dose 5-10 µM
MHCC97H [14] = assay: Induction of N-cadherin protein expression in human MHCC97H cells at 5 to 10 uM measured after 48 hrs incubation by Western blot analysis; assay type: functional, cell-based; conditions: dose 5-10 µM
MHCC97H [15] = assay: Induction of vimentin protein expression in human MHCC97H cells at 5 to 10 uM measured after 48 hrs incubation by Western blot analysis; assay type: functional, cell-based; conditions: dose 5-10 µM
MHCC97H [16] = assay: Induction of MMP2 protein expression in human MHCC97H cells at 5 to 10 uM measured after 48 hrs incubation by Western blot analysis; assay type: functional, cell-based; conditions: dose 5-10 µM
MHCC97H [17] = assay: Induction of MMP9 protein expression in human MHCC97H cells at 5 to 10 uM measured after 48 hrs incubation by Western blot analysis; assay type: functional, cell-based; conditions: dose 5-10 µM
MHCC97H [18] = assay: Induction of ZEB1 protein expression in human MHCC97H cells at 5 to 10 uM measured after 48 hrs incubation by Western blot analysis; assay type: functional, cell-based; conditions: dose 5-10 µM
HCCLM3 [19] = assay: Induction of E-cadherin protein expression in human HCCLM3 cells at 5 to 10 uM measured after 48 hrs incubation by Western blot analysis; assay type: functional, cell-based; conditions: dose 5-10 µM
HCCLM3 [20] = assay: Induction of N-cadherin protein expression in human HCCLM3 cells at 5 to 10 uM measured after 48 hrs incubation by Western blot analysis; assay type: functional, cell-based; conditions: dose 5-10 µM
HCCLM3 [21] = assay: Induction of vimentin protein expression in human HCCLM3 cells at 5 to 10 uM measured after 48 hrs incubation by Western blot analysis; assay type: functional, cell-based; conditions: dose 5-10 µM
HCCLM3 [22] = assay: Induction of MMP2 protein expression in human HCCLM3 cells at 5 to 10 uM measured after 48 hrs incubation by Western blot analysis; assay type: functional, cell-based; conditions: dose 5-10 µM
HCCLM3 [23] = assay: Induction of MMP9 protein expression in human HCCLM3 cells at 5 to 10 uM measured after 48 hrs incubation by Western blot analysis; assay type: functional, cell-based; conditions: dose 5-10 µM
HCCLM3 [24] = assay: Induction of ZEB1 protein expression in human HCCLM3 cells at 5 to 10 uM measured after 48 hrs incubation by Western blot analysis; assay type: functional, cell-based; conditions: dose 5-10 µM
MHCC97H [25] = assay: Induction of cell cycle related protein expression in human MHCC97H cells assessed as increase in p21 expression at 5 to 10 uM measured after 48 hrs by Western blot analysis; assay type: functional, cell-based; conditions: dose 5-10 µM
MHCC97H [26] = assay: Induction of cell cycle related protein expression in human MHCC97H cells assessed as increase in p53 expression at 5 to 10 uM measured after 48 hrs by Western blot analysis; assay type: functional, cell-based; conditions: dose 5-10 µM
MHCC97H [27] = assay: Induction of cell cycle related protein expression in human MHCC97H cells assessed as increase in retinoblastoma-associated protein (Rb) expression at 5 to 10 uM measured after 48 hrs by Western blot analysis; assay type: functional, cell-based; conditions: dose 5-10 µM
HCCLM3 [28] = assay: Induction of cell cycle related protein expression in human HCCLM3 cells assessed as increase in p21 expression at 5 to 10 uM measured after 48 hrs by Western blot analysis; assay type: functional, cell-based; conditions: dose 5-10 µM
HCCLM3 [29] = assay: Induction of cell cycle related protein expression in human HCCLM3 cells assessed as increase in p53 expression at 5 to 10 uM measured after 48 hrs by Western blot analysis; assay type: functional, cell-based; conditions: dose 5-10 µM
HCCLM3 [30] = assay: Induction of cell cycle related protein expression in human HCCLM3 cells assessed as increase in retinoblastoma-associated protein (Rb) expression at 5 to 10 uM measured after 48 hrs by Western blot analysis; assay type: functional, cell-based; conditions: dose 5-10 µM
MHCC97H [31] = assay: Reduction of cell cycle promoting protein expression in human MHCC97H cells assessed as increase in CDK6 expression measured after 48 hrs by Western blot analysis; assay type: functional, cell-based; conditions: dose 5-10 µM
MHCC97H [32] = assay: Reduction of cell cycle promoting protein expression in human MHCC97H cells assessed as increase in cyclin E1 expression measured after 48 hrs by Western blot analysis; assay type: functional, cell-based; conditions: dose 5-10 µM
MHCC97H [33] = assay: Reduction of cell cycle promoting protein expression in human MHCC97H cells assessed as increase in phosphorylated-Rb expression measured after 48 hrs by Western blot analysis; assay type: functional, cell-based; conditions: dose 5-10 µM
HCCLM3 [34] = assay: Reduction of cell cycle promoting protein expression in human HCCLM3 cells assessed as increase in CDK6 expression measured after 48 hrs by Western blot analysis; assay type: functional, cell-based; conditions: dose 5-10 µM
HCCLM3 [35] = assay: Reduction of cell cycle promoting protein expression in human HCCLM3 cells assessed as increase in cyclin E1 expression measured after 48 hrs by Western blot analysis; assay type: functional, cell-based; conditions: dose 5-10 µM
HCCLM3 [36] = assay: Reduction of cell cycle promoting protein expression in human HCCLM3 cells assessed as increase in phosphorylated-Rb expression measured after 48 hrs by Western blot analysis; assay type: functional, cell-based; conditions: dose 5-10 µM
MHCC97H [37] = assay: Reduction in cell-division in human MHCC97H cells by measuring carboxyfluorescein succinimidyl ester (CFSE) at 5 to 10 uM measured after 24 hrs by flow cytometry; assay type: functional, cell-based; conditions: dose 5-10 µM
HCCLM3 [38] = assay: Reduction in cell-division in human HCCLM3 cells by measuring carboxyfluorescein succinimidyl ester (CFSE) at 5 to 10 uM measured after 24 hrs by flow cytometry; assay type: functional, cell-based; conditions: dose 5-10 µM
MHCC97H [39] = assay: In vivo-antitumor activity against human MHCC97H cells xenografted BALB/c mouse model assessed as reduction in Ki-67 protein at 10 mg/kg, IG once daily measured after 31 days relative to control; assay type: functional, organism-based; conditions: time 31.0 day
HCCLM3 [40] = assay: In vivo-antitumor activity against human HCCLM3 cells xenografted BALB/c mouse model assessed as reduction in Ki-67 protein at 10 mg/kg, IG once daily measured after 31 days relative to control; assay type: functional, organism-based; conditions: time 31.0 day

COc1cc2nccc(Oc3ccc(NC(=O)NC4CC4)c(Cl)c3)c2cc1C(N)=O [LENVATINIB]
inhibition (MHCC97H [1]): inactive
inhibition (HCCLM3 [2]): inactive
inhibition (MHCC97H [3]): inactive
inhibition (HCCLM3 [4]): inactive
Activity (MHCC97H [5]): inactive
Activity (MHCC97H [6]): inactive
Activity (HCCLM3 [7]): inactive
Activity (HCCLM3 [8]): inactive

COC(=O)c1ccc2[nH]cc(C(=O)C(=O)NC3CCN(c4ccc(C)cc4Cl)C3=O)c2c1 (centres undefined)
inhibition (MHCC97H [9]): Active
inhibition (HCCLM3 [10]): Active
inhibition (MHCC97H [11]): Dose-Dependent Effect
inhibition (HCCLM3 [12]): Dose-Dependent Effect
Activity (MHCC97H [13]): Active
Activity (MHCC97H [14]): Active
Activity (MHCC97H [15]): Active
Activity (MHCC97H [16]): Active
Activity (MHCC97H [17]): Active
Activity (MHCC97H [18]): Active
Activity (HCCLM3 [19]): Active
Activity (HCCLM3 [20]): Active
Activity (HCCLM3 [21]): Active
Activity (HCCLM3 [22]): Active
Activity (HCCLM3 [23]): Active
Activity (HCCLM3 [24]): Active
Activity (MHCC97H [25]): Active
Activity (MHCC97H [26]): Active
Activity (MHCC97H [27]): Active
Activity (HCCLM3 [28]): Active
Activity (HCCLM3 [29]): Active
Activity (HCCLM3 [30]): Active
Activity (MHCC97H [31]): Dose-Dependent Effect
Activity (MHCC97H [32]): Dose-Dependent Effect
Activity (MHCC97H [33]): Dose-Dependent Effect
Activity (HCCLM3 [34]): Dose-Dependent Effect
Activity (HCCLM3 [35]): Dose-Dependent Effect
Activity (HCCLM3 [36]): Dose-Dependent Effect
Activity (MHCC97H [37]): Active
Activity (HCCLM3 [38]): Active
Activity (MHCC97H [5]): Active
Activity (MHCC97H [6]): Active
Activity (HCCLM3 [7]): Active
Activity (HCCLM3 [8]): Active
Activity (MHCC97H [39]): Active
Activity (HCCLM3 [40]): Active

The source made the active and inactive calls. The calls are words filed in the database; no cut-off is given here.
